The data set can be described thus: logP determination by retention times (calibration with alkan-2-ones). Particulars: linear gradient 10% to 95% acetonitrile.
Setting [1] is: * HPLC reversed-phase C18, 40° C., mobile phase 0.1% aqueous formic acid and acetonitrile.
Setting [2] is: values marked *: HPLC on reversed-phase C 18, 40° C., mobile phase 0.1% aqueous formic acid and acetonitrile.

Marks after values point to notes of the source that are not given here.

In the case of “N8-(4-fluorophenyl)-N2-(2-methoxyethyl)-N2-methyl-4,5-dihydro[1,3]thiazole[4,5-h]quinazoline-2,8-diamine [Example 773]”, the logP under setting [1] is 1.94*. Take “N8-(4-fluorophenyl)-N2,N2-dimethyl-4,5-dihydro[1,3]thiazole[4,5-h]quinazoline-2,8-diamine [Example 610]”: under setting [1], the logP is 1.78*. As for “1-(4-{[2-(dimethylamine)-8H-[1,3]thiazole[4′,5′:4,5]cyclopenta[1,2-d]pyrimidin-5-yl]amino}phenyl)pyrrolidin-2-one [Example 870]”, under setting [2], the logP is 1.37*. Turning to “2-methyl-N-(3,4,5-trimethoxyphenyl)-4,5-dihydro[1,3]thiazole[4,5-h]quinazoline-8-amine [Example 94]”, the logP (HPLC, reversed-phase C 18, EEC Directive 79/831 Annex V.A8, method *: 40° C., 0.1% aqueous formic acid and acetonitrile) is 2.18*. Turning to “N-(3-methoxyphenyl)-2-methyl-4,5-dihydro[1,3]thiazole[4,5-h]quinazoline-8-amine [Example 444]”, the logP under setting [1] is on record as 2.59*.

Regarding “N2-tert-butyl-N8-phenyl-4,5-dihydro[1,3]thiazole[4,5-h]quinazoline-2,8-diamine [Example 918]”, the logP under setting [2] is 2.15*.

(Values after US20090030024A1, “THIAZOLES AS FUNGICIDES” (priority 2005, published 2009).)
